{
  "sequences": {"note": "By UniProt entry, the sequences of proteins in these tests, tags left out. Residues count along the entry.", "UniProt P14740, 37-767 limits assumed": "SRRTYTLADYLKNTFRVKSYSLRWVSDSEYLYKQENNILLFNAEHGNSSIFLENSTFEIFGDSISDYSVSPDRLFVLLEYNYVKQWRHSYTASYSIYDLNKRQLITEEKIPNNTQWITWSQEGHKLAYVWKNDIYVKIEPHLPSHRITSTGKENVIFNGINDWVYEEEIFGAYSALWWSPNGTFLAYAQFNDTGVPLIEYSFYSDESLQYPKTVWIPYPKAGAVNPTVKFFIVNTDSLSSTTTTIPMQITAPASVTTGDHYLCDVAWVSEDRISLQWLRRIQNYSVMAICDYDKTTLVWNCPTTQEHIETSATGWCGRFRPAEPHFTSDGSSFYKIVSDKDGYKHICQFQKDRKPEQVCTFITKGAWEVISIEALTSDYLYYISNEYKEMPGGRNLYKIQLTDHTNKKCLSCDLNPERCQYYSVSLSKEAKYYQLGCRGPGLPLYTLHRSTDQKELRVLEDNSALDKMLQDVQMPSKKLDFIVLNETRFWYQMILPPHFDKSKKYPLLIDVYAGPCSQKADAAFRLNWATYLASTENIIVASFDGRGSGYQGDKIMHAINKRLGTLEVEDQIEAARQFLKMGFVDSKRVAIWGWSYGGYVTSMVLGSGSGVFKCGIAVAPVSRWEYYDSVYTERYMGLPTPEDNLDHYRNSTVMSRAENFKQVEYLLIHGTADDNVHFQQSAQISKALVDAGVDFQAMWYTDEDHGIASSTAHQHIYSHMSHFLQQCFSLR"},
  "source": "patent US20070072830A1",
  "about": "“Methods for treating diabetes” (Point Therapeutics, Inc., priority 2004, published 2007)",
  "target": "plasma DPP-IV (Rattus norvegicus, UniProt P14740)",
  "settings": "Zucker rats, 10 μmol/kg oral",
  "data": [
    {"smiles": "N[C@@H](CCC(=O)O)C(=O)N1CCC[C@H]1B(O)O", "note": "[Glu-boroPro]", "values": [
      {"measurement": "Inhibition of plasma DPP-IV activity at t−5 min", "value": "Marked inhibition"},
      {"measurement": "Inhibition of plasma DPP-IV activity by t0", "value": "maximal inhibition"}
    ]}
  ]
}
